{"source": "patent US20160220669A1", "about": "(Hoffmann-La Roche, published 2016)", "binders": {"B1": {"name": "hMab 2F11-e7 (antibody, V domains shown)", "VH": "QVQLVQSGAEVKKPGASVKVSCKASGYTFTSYDISWVRQAPGQGLEWMGVIWTDGGTNYAQKLQGRVTMTTDTSTSTAYMELRSLRSDDTAVYYCARDQRLYFDVWGQGTTVTVSS", "VL": "DIQMTQSPSSLSASVGDRVTITCRASEDVNTYVSWYQQKPGKAPKLLIYAASNRYTGVPSRFSGSGSGTDFTLTISSLQPEDFATYYCQQSFSYPTFGQGTKLEIK"}, "B2": {"name": "hMab 2F11-f12 (antibody, V domains shown)", "VH": "QVQLVQSGAEVKKPGSSVKVSCKASGFSLTTYDISWVRQAPGQGLEWMGVIWTDGGTNYNSPFMSRVTITKDESTSTAYMELSSLRSEDTAVYYCVRDQRLYFDVWGQGTTVTVSS", "VL": "B1 VL with A50G, N53S, R54L, Y55Q, T56S, Q89G"}, "B3": {"name": "Mab 2E10 (antibody, V domains shown)", "VH": "QVQLKESGPGLVAPSKSLSITCTVSGSSLDSFDISWIRQSPGKGLEWLGVIWTGGGTNYNSGFMSRLRITKDNSKSQVLLKMNSLQSDDTAIYYCVRDPRLYFDVWGAGTTVTVSS", "VL": "NIVMTQSPKSMSMSVGERVTLSCKASEDVVTYVSWYQQKPDQSPKLLIYGASNRYTGVPDRFTGSGSATDFTLTISSVQAEDLADYYCGQTFSYPTFGTGTKLEIK", "notes": "Murine monoclonal antibody from hybridoma"}, "B4": {"name": "Mab 2F11 (antibody, V domains shown)", "VH": "QVQLKESGPGLVAPSQSLSITCTVSGFSLTTYDISWIRQSPGKGLEWLGVIWTDGGTNYNSPFMSRLSIRKDNSKSQVFLKMNRLQTDDTAIYYCVRDQRLYFDVWGAGTTVTVSS", "VL": "B3 VL with S22N, V30N, K39Q, D41E, S65G, A68T, Y87F, T91S", "notes": "Murine monoclonal antibody from hybridoma (NMRI mice); also called <CSF-1R>Mab 2F11; muMab 2F11"}, "B5": {"name": "Mab 1G10 (antibody, V domains shown)", "VH": "B4 VH with Q1R, T31S, T53S, D54G, S68R, R70S, N73D, K75R, M82V, Q99L", "VL": "B3 VL with N1K, M13V, T20S, V30G, D41E, A51S, Y87S, T91S, S93T", "notes": "as for B3"}, "B6": {"name": "Mab 2H7 (antibody, V domains shown)", "VH": "B3 VH with S40P, T70S, L79F, N83S", "VL": "B3 VL with D41E, V78I", "notes": "as for B3"}}, "note": "Positions count from the first letter of the chain named.", "data": [{"target": "T1, human wildtype CSF-1R (full-length) (human, UniProt P07333 20-972)", "assay": "cell-based or functional assay", "units": {"IC50 (survival of human monocytes with huCSF-1, CellTiterGlo)": "µg/mL"}, "values": [{"binder": "B1", "IC50 (survival of human monocytes with huCSF-1, CellTiterGlo)": 0.04}, {"binder": "B2", "IC50 (survival of human monocytes with huCSF-1, CellTiterGlo)": 0.09}]}, {"target": "T1, human wildtype CSF-1R (full-length)", "assay": "cell-based or functional assay", "remark": "another data set of the same source", "units": {"wtCSF-1R IC50 (cell viability, CellTiterGlo, 3D culture)": "µg/mL"}, "values": [{"binder": "B3", "wtCSF-1R IC50 (cell viability, CellTiterGlo, 3D culture)": 0.49}, {"binder": "B4", "wtCSF-1R IC50 (cell viability, CellTiterGlo, 3D culture)": 1.1}, {"binder": "B5", "wtCSF-1R IC50 (cell viability, CellTiterGlo, 3D culture)": 0.29}, {"binder": "B6", "wtCSF-1R IC50 (cell viability, CellTiterGlo, 3D culture)": 0.31}]}, {"target": "human mutant CSF-1R L301S Y969F (human, UniProt P07333 20-972)", "assay": "cell-based or functional assay", "units": {"Mutant CSF-1R IC50 (cell viability, CellTiterGlo, 3D culture)": "µg/mL"}, "values": [{"binder": "B3", "Mutant CSF-1R IC50 (cell viability, CellTiterGlo, 3D culture)": 4.9}, {"binder": "B4", "Mutant CSF-1R IC50 (cell viability, CellTiterGlo, 3D culture)": 8}, {"binder": "B5", "Mutant CSF-1R IC50 (cell viability, CellTiterGlo, 3D culture)": 14.2}, {"binder": "B6", "Mutant CSF-1R IC50 (cell viability, CellTiterGlo, 3D culture)": 5.3}]}, {"target": "T1, human wildtype CSF-1R (full-length)", "assay": "cell-based or functional assay", "remark": "another data set of the same source", "units": {"IC50 (survival of human monocytes with huCSF-1, CellTiterGlo)": "µg/mL"}, "values": [{"binder": "B3", "IC50 (survival of human monocytes with huCSF-1, CellTiterGlo)": 0.06}, {"binder": "B4", "IC50 (survival of human monocytes with huCSF-1, CellTiterGlo)": 0.08}, {"binder": "B5", "IC50 (survival of human monocytes with huCSF-1, CellTiterGlo)": 0.06}, {"binder": "B6", "IC50 (survival of human monocytes with huCSF-1, CellTiterGlo)": 0.03}]}, {"target": "T2, human CSF-1R fragment delD4 (comprising the extracellular subdomains D1-D3 and D5) (human, UniProt P07333 20-512)", "T2 construct": "Obtained as dimer and monomer; 'The dimeric form was used for all experiments'; Cleaved from Fc-His by PreScission protease; also called hCSF-1R-delD4", "assay": "SPR (Biacore T100), 25 C, reference-subtracted signal of nonbinding antibody", "units": {"binding signal [RU] before being set as 0": "RU"}, "values": [{"binder": "B3", "binding signal [RU] before being set as 0": -2}, {"binder": "B4", "binding signal [RU] before being set as 0": -3}, {"binder": "B5", "binding signal [RU] before being set as 0": -6}, {"binder": "B6", "binding signal [RU] before being set as 0": -9}]}, {"target": "T3, Human CSF-1R Extracellular Domain (CSF-1R-ECD) (R&D-Systems 329-MR or subcloned … (human, UniProt P07333 20-512))", "T3 construct": "not shown: tag or fusion part (HisAvitag, or as in the bought product)", "assay": "SPR (Biacore A100), 35 C, antibody captured by anti mouse Fc-gamma, CSF-1R-ECD in solution, Langmuir 1:1", "units": {"t½": "h"}, "values": [{"binder": "B3", "t½": 6.48}, {"binder": "B4", "t½": 3.72}, {"binder": "B5", "t½": 3.07}, {"binder": "B6", "t½": 6.17}]}, {"target": "T2, human CSF-1R fragment delD4 (comprising …)", "assay": "SPR, antibody as analyte at 10 nM over immobilized CSF-1R fragment, report point 10 s after end of injection, reference subtracted", "units": {"binding signal [RU] before being set as 0": "RU"}, "values": [{"binder": "B3", "binding signal [RU] before being set as 0": -2}, {"binder": "B4", "binding signal [RU] before being set as 0": -3}, {"binder": "B5", "binding signal [RU] before being set as 0": -6}, {"binder": "B6", "binding signal [RU] before being set as 0": -9}]}]}
